Test results from patent US9095573B2, “Method of biasing implanted human neural stem cells away from differentiation into glial cells by (+)phenserine to modulate the concentration of soluble βAPP in tissue or CSF” (priority 2005, dated 2015).

Tests used:
[1] = test system: APP protein (22C11); assay: Western blot analysis of APP protein expression in brain tissue after (+)-phenserine treatment; format: in vivo, APP23 and wild-type mice; details: 25 mg/kg, i.p./day for 14 days
Text: (§1) APP23 mice, expressing the 751-amino acid human amyloid-precursor protein (hAPP751) with the Swedish double mutation (K670N, M671L) driven by the neuron-specific murine Thy-1-promoter (Sturchler-Pierrat et al., 1997) were received as a gift from Novartis Pharma Ltd., (Switzerland), and employed to breed a colony of experimental animals by backcrossing to C57/BL6 mice. Mixed genotype groups were housed in standard mouse cages with access to food and water ad libitum, constant room temperature and humidity, during a 12/12 hr light/dark cycle. Genotypes were confirmed by PCR (Calhoun et al., 1999). In all experiments wild-type littermates served as controls. All animal experimental procedures were carried out in compliance with National Institutes Health Guidelines for Care and Use of Laboratory Animals, and approved by the Animal Research Committee (protocol 00-24) at the University of Central Florida.
(§2) A total of 55 age and sex-matched APP23 (n=30) and wild-type (n=25) mice (ages ranged from 4-7 months) were administered with either (+)-phenserine (25 mg/kg/day, i.p.) or 0.9% saline (control) for 14 consecutive days. Animals were subsequently divided into two groups that were either sacrificed following 14 days treatment (n=17 APP23 and n=13 wild-type, respectively) or received transplantation of HSNC into the lateral ventricle (n=13 APP23 mice and n=12 wild-type, respectively). (+)-Phenserine or saline injection was continued once a day for 1 week after a 2-day recovery from transplantation surgery. […]
(§3) Western blot analysis was performed to analyze effect of (+)-phenserine on the relative APP and GFAP protein expression in APP23 and control mice. […] The homogenates were centrifuged and washed twice at 12,000× g for 10 min at 4° C. and the supernatants were used for protein quantification by the Bradford method using Bio-Rad Protein Assay Dye Reagent (Bio-Rad, Hercules, Calif.). […]

[2] = test system: βAPP; details: Greig et al.; cited from earlier work
[3] = test system: GFAP; assay: Western blot analysis of GFAP protein expression in brain tissue after (+)-phenserine treatment; format: in vivo, APP23 and wild-type mice; details: 25 mg/kg, i.p./day for 14 days
Text: as §1, §2, §3

[4] = wild-type mice, hippocampus (FIG. 1)

## (+)-phenserine
[1]; cerebral cortices of APP23 and wild-type mice, p>0.05
  reduction in APP protein expression: did not reach statistical significance
[1]; hippocampus of APP23 mice, p<0.01
  decrease in APP protein expression vs saline treated: ~3 fold
[1]; [4]
  change in APP protein expression vs saline treated: No significant change
[2]
  effect on βAPP levels in the brain: dramatically reduces βAPP levels in the brain
[3]; cerebral cortices of APP23 and wild-type mice
  change in GFAP protein expression: no significant change
[3]; hippocampus of APP23 mice, p<0.05
  reduction in GFAP protein expression: ~1.5 fold
[3]; [4]
  change in GFAP protein expression vs saline treated: No significant changes
